Article PMC2631555 (Bioorganic & medicinal chemistry letters, 2008)

Tested on: tubulin
Conditions: 5 µM compound; purified tubulin 7.2 µM, GTP, 37°C, 0.5% DMSO

How did the “Inhibition of tubulin polymerization” value turn out when `COc1cc2c(c(OC)c1OC)-c1ccc(OC)c(=O)cc1[C@@H](NC(=O)CCCCCNC(=O)COc1ccc(/C=C/C3=[N+]4C(=Cc5ccc(-c6ccc[nH]6)n5[B-]4(F)F)C=C3)cc1)CC2` [colchicine-646] was run?
Its value is “weak inhibition”.
